From patent US20170290925A1, “Conjugates And Conjugating Reagents” (priority 2014, published 2017)

Test system: JIMT-1 cells (breast carcinoma) xenograft
Experiment: JIMT-1 mouse xenograft study (Example 15)
Type: in vivo, NMRI nude mice
Conditions: single 5 mg/kg dose i.v.
Experimental: Trastuzumab-drug conjugate 27 was prepared from reagent 9 by the method described in Example 5.
Healthy female NMRI nude mice (RjOrl:NMRI-Foxn1^nu/Foxn1^nu) aged 6 weeks at arrival were used for cell inoculation. The animals were maintained in SPF health status according to the FELASA guidelines in housing rooms under controlled environmental conditions.
Tumours were induced by subcutaneous injection of 5×10^6 JIMT-1 cells (breast carcinoma) in 200 μL of cell suspension in PBS into the right flank. Matrigel (40 μL Matrigel per 200 μL cell suspension) was added shortly before inoculation of tumour cells. Tumours were measured twice a week with calipers, and the volume was estimated using the formula: […]
When the tumour volumes reached a mean tumour volume of approximately 150 mm^3, the animals were randomized into groups of ten mice (128 mm^3 mean tumor volume) and treatment was initiated (Day 0). All test substances were injected via the tail vein (i.v., bolus). […]
Mice viability and behaviour were recorded every day. Body weights were measured twice a week. The animals were euthanized when a humane endpoint was reached (e.g. calculated tumour weight of >10% body weight, animal body weight loss of >20% compared to the body weight at group distribution, ulceration of tumours, lack of mobility, general signs of pain), or at a pre-determined study end date.

## Kadcyla®: commercial product, comparative in JIMT-1 xenograft studies [reference compound]
  Effect on tumour volume: little effect over the vehicle control
